{"source": "paper PMC7000712", "about": "“A kinetic method for measuring agonist efficacy and ligand bias using high resolution biosensors and a kinetic data analysis framework” (Scientific Reports, 2020)", "key": {"[1]": {"molecular_target": "T1, angiotensin AT1 receptor (Homo sapiens, UniProt P30556)", "experiment": "Arrestin-3 (β-arrestin2) mNeonGreen biosensor recruitment, AT1 receptor, HEK 293 T cells (time course)", "assay_type": "cell-based"}, "[2]": {"molecular_target": "T1, angiotensin AT1 receptor", "experiment": "Diacylglycerol production, Red Downward DAG sensor, AT1 receptor, HEK 293 T cells", "assay_type": "cell-based", "details": "32 μM"}, "[3]": {"molecular_target": "T1, angiotensin AT1 receptor", "experiment": "Ca^2+ mobilization, R-GECO sensor, AT1 receptor, HEK 293 T cells", "assay_type": "cell-based", "details": "32 μM"}, "[4]": {"tested_on": "angiotensin AT1 receptor", "experiment": "Bias ratio, arrestin recruitment over DAG (kτ ratio)", "details": "32 μM; kτ normalized to AngII for arrestin divided by that for DAG"}, "[5]": {"tested_on": "angiotensin AT1 receptor", "experiment": "Bias ratio, arrestin recruitment over Ca^2+ mobilization (kτ ratio)"}, "[6]": {"tested_on": "angiotensin AT1 receptor", "details": "cited from earlier work"}, "[7]": {"details": "32 µM, association exponential fit, Supplementary Table S1"}, "[8]": {"details": "mean kτ of ligand divided by that for AngII"}}, "note": "Like-named read-outs stand apart in the source and are kept apart here."}
{"molecule": "CC[C@H](C)[C@H](NC(=O)[C@H](Cc1ccc(O)cc1)NC(=O)[C@@H](NC(=O)CN)C(C)C)C(=O)N[C@@H](Cc1cnc[nH]1)C(=O)N1CCC[C@H]1C(=O)N[C@@H](Cc1ccccc1)C(=O)O", "values": [{"measurement": "Plateau", "setting": "[1]; [7]", "result": "0.44 ± 0.00", "unit": "NFU"}, {"measurement": "kobs", "setting": "[1]; [7]", "result": "0.85 ± 0.05", "unit": "min⁻¹"}, {"measurement": "t1/2 of arrestin recruitment", "setting": "[1]; 32 µM, calculated from kobs (t1/2 = 0.693/kobs)", "result": "49 ± 3", "unit": "s"}, {"measurement": "kτ (% AngII), arrestin (single concentration)", "setting": "[1]; 32 μM, mean kτ of ligand divided by that for AngII", "result": 92, "unit": "% AngII"}, {"measurement": "Emax, 1 minute time point", "setting": "[1]; 1 min (rise phase), sigmoid fit, representative experiments", "result": 103, "unit": "% Ang II"}, {"measurement": "Emax, 20 minute time point", "setting": "[1]; 20 min (plateau), sigmoid fit, representative experiments", "result": 100, "unit": "% Ang II"}, {"measurement": "KA", "setting": "[1]; calculated from the mean pKA value, L50 of Plateau × kobs vs concentration curve", "result": 130, "unit": "nM"}, {"measurement": "kτ, initial rate of arrestin recruitment (concentration-response)", "setting": "[1]; concentration-response method, asymptote of Plateau × kobs vs concentration, mean ± s.e.m., three experiments (SII n = 2), NFU, normalized fluorescence units, HEK 293 T, DPBS, Biotek Synergy Mx", "result": "0.38 ± 0.02", "unit": "NFU.min^−1"}, {"measurement": "kτ (% AngII), arrestin (concentration-response)", "setting": "[1]; concentration-response method, mean kτ of ligand divided by that for AngII", "result": 93, "unit": "% AngII"}, {"measurement": "Emax, kinetic model initial rate", "setting": "[1]; concentration-response of the initial rate, repeated from Table 1 in Supplementary Table S2", "result": 93, "unit": "% Ang II"}, {"measurement": "arrestin recruitment efficacy at the initial rate (in words)", "setting": "[1]; initial rate, kτ method", "result": "effectively full agonists"}, {"measurement": "pKA", "setting": "[1]; ligand affinity from L50 of Plateau × kobs vs concentration curve, mean ± s.e.m., three experiments (SII n = 2)", "result": "6.90 ± 0.04"}, {"measurement": "EC50", "setting": "[1]; read-out: EC50, 1 minute time point, 1 min (rise phase), sigmoid fit, representative experiments", "result": 100, "unit": "nM"}, {"measurement": "EC50", "setting": "[1]; read-out: EC50, 20 minute time point, 20 min (plateau), sigmoid fit, representative experiments", "result": 14, "unit": "nM"}, {"measurement": "kτ, arrestin (single concentration)", "setting": "[1]; single maximally-stimulating concentration 32 μM, Plateau × kobs, mean ± s.e.m., three experiments (SII n = 2)", "result": "0.37 ± 0.02", "unit": "NFU.min^−1"}, {"measurement": "kτ, diacylglycerol", "setting": "[2]; C of rise-and-fall exponential fit, mean ± s.e.m., three experiments", "result": "2.1 ± 0.1", "unit": "NFU.min^−1"}, {"measurement": "kτ (% AngII), diacylglycerol", "setting": "[2]; [8]", "result": 120, "unit": "% AngII"}, {"measurement": "kτ, calcium", "setting": "[3]; C of rise-and-fall exponential fit with drift, mean ± s.e.m., three experiments", "result": "2.5 ± 0.2", "unit": "NFU.min^−1"}, {"measurement": "kτ (% AngII), calcium", "setting": "[3]; [8]", "result": 110, "unit": "% AngII"}, {"measurement": "Arrestin/DAG kτ ratio (% AngII ratio)", "setting": "[4]", "result": 0.74}, {"measurement": "Arrestin/Ca^2+ kτ ratio (% AngII ratio)", "setting": "[5]; 32 μM, kτ normalized to AngII for arrestin divided by that for Ca^2+", "result": 0.81}, {"measurement": "signaling bias, arrestin vs Gq (in words)", "setting": "[5]; kτ ratio arrestin/Ca^2+, relative to AngII", "result": "unbiased, relative to AngII"}, {"measurement": "signaling bias, arrestin vs G-protein (in words, literature)", "setting": "[6]", "result": "balanced ligand (relative to AngII)"}, {"measurement": "signaling bias, arrestin vs G-protein (in words, literature)", "setting": "[6]; listed as TRV 055", "result": "unbiased relative to AngII"}]}
